Assay results from patent US9006244B2, “Liver X receptor modulators” (priority 2012, dated 2015).

The chains behind the UniProt entries cited, without tags or fusion partners. Residues count along the entry.
UniProt P55055, 222-460: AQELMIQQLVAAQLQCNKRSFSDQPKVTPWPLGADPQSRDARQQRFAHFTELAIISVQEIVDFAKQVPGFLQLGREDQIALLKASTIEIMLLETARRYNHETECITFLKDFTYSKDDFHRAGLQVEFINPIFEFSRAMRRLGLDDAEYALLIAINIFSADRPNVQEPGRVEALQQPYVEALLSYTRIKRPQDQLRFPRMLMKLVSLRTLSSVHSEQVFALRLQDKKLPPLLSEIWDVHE

Columns and labels:
[1] = target: LXRβ ligand binding domain (LBD) (Homo sapiens (Human), UniProt P55055); test: LXR β radioligand binding assay (SPA, [3H]TO901317 competition)
Protocol: Poly-lysine SPA beads (50 μg) were added to each well and the total volume was adjusted to 120 μL. The plates were shaken on an orbital shaker for 20 min and then allowed to settle for 10 more minutes at rt before a brief centrifugation at 2,000 rpm for 1 min.

LXRβ = LXRβ (Homo sapiens (Human), UniProt P55055); test: LXR luciferase transcriptional reporter gene assay, Gal4-LXRβ LBD in HEK293 cells; assay type: cell-based; details: pG5-Luc luciferase reporter, 16 h, read-out: LXRβ CELL EC50

Ki [1] | EC50 (LXRβ) | SMILES
1750 nM | > 20000 nM | CC(C)[C@H]1c2cc3ccc(S(C)(=O)=O)cc3n2CCN1c1nccc(C(F)(F)F)n1 (single isomer, unassigned) [Compound E3b, 1-isopropyl-7-(methylsulfonyl)-2-(4-(trifluoromethyl)pyrimidin-2-yl)-1,2,3,4-tetrahydropyrazino[1,2-a]indole]
27 nM | 87 nM | CC(C)[C@@H]1c2cc3ccc(S(C)(=O)=O)cc3n2CCN1c1nccc(C(F)(F)F)n1 (single isomer, unassigned) [Compound E3a, 1-isopropyl-7-(methylsulfonyl)-2-(4-(trifluoromethyl)pyrimidin-2-yl)-1,2,3,4-tetrahydropyrazino[1,2-a]indole]
